Experimental data from patent US8026252B2 (priority 2005, dated 2011).

Chains of the proteins cited; added tags and fusions are not shown. Lines headed by an entry give the natural chain unless they say otherwise; changes in a name come on top.
UniProt P41145: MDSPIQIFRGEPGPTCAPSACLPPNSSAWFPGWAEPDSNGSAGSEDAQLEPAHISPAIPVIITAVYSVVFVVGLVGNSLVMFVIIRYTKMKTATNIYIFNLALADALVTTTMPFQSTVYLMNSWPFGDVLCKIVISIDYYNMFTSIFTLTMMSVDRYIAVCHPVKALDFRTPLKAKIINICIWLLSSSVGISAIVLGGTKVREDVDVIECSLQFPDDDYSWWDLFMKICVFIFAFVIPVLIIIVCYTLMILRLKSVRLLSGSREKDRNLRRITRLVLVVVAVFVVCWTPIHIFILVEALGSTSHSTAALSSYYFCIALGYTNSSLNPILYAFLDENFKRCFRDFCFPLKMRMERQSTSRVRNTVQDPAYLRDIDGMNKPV
UniProt P35372, whole entry, looked up: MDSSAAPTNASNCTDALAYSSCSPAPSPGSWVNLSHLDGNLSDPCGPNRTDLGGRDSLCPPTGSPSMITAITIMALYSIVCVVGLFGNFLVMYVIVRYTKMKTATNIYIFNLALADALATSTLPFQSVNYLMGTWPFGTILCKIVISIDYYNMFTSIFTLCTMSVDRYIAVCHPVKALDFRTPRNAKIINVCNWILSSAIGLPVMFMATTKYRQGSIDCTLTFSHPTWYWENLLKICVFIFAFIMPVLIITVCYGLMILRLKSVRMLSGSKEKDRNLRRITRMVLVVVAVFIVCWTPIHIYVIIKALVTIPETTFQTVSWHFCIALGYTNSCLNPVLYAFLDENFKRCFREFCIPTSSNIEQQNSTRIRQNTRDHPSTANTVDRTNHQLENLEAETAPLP

Experiments:
human κ opioid receptor = human κ opioid receptor (Homo sapiens, UniProt P41145); experiment: Opioid receptor binding, [3H]U69,593 (κ), CHO cell membranes; conditions: read-out: [3H]U69,593 (κ), Table 3 other opioid parents, mean ± SEM, unit inferred
human δ opioid receptor = human δ opioid receptor (Homo sapiens, UniProt P41143); experiment: Opioid receptor binding, [3H]naltrindole (δ), CHO cell membranes; conditions: read-out: [3H]Naltrindole (δ), Table 3 other opioid parents, mean ± SEM, unit inferred
human μ opioid receptor = human μ opioid receptor (Homo sapiens, UniProt P35372); conditions: read-out: [3H]DAMGO (μ), Table 3 other opioid parents, mean ± SEM, unit inferred

Molecule COC12CCC3(CC1C(C)(O)C(C)(C)C)C1Cc4ccc(C(=O)NCCc5ccc(-c6ccccc6)cc5)c5c4C3(CCN1CC1CC1)C2O5 (single isomer, unassigned) has a Ki (human κ opioid receptor) of 120 nM, a Ki (human δ opioid receptor) of 16 nM and a Ki (human μ opioid receptor) of 1.3 nM.
